Measurements: patent US7256286B2, “Bryostatin analogues, synthetic methods and uses” (The Board of Trustees of the Leland Stanford Junior …, priority 1999, dated 2007)

Amino acid sequences for entries named in this document (tags omitted). A change or cut given only in a name is not applied to a line headed by its entry. Residues count along the entry.
UniProt P28867, 231-281 limits assumed: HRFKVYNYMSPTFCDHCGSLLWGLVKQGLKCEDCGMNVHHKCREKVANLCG

Experiments:
[1] = target: PKCδ-C1B (Mus musculus, UniProt P28867); experiment: PKCδ-C1B assay; settings: for activity in PKCδ-C1B assay compared with other analogues: 702.1 vs corresponding C26 methyl-containing analogue, 48, 49 among C20 ester analogues; for Ki: read-out: PKCδ-C1B Assay Ki, competition with tritiated phorbol 12,13-dibutyrate
Source text: Example 6 describes another protein kinase C assay which can be used to assess the binding affinities of compounds of the invention for binding to the C1B domain of PKCδ. […] Overexpression of PKCδ inhibits tumor cell growth and induces cellular apoptosis, whereas depleting cells of PKCδ can cause tumor promotion. Accordingly, this assay provides useful binding data for assessing potential anticancer activity.
The following procedure was used, based on a modification of a previous procedure described by Tanaka et al. (1986). Filters (Whatman GF-B, 21 mm diam.) are soaked for 1 h in a solution containing deionized water (97 mL), and 10% polyethyleneamine (3 mL). A filtering buffer solution containing TRIS (1M, pH 7.4, 10 mL) and water (490 mL) is prepared and cooled on ice. An assay buffer solution is prepared by the addition of TRIS (1M, pH 7.4, 1 mL), KCl (1M, 2 mL), CaCl2 (0.1M, 30 μL), bovine serum albumin (40 mg), diluted to 20 mL with deionized water and stored on ice. Phosphatidyl serine vesicles are prepared by the addition of phosphatidyl serine (10 mg/mL in chloroform, 0.4 mL) to a glass test tube followed by removal of the chloroform under a stream of nitrogen (5 min). To this viscous liquid is added a portion of the prepared assay buffer (4 mL) and the resulting mixture is then transferred to a plastic tube with washing. This tube is then sonicated (Branson Sonifier 250, power=6, 40% duty cycle) four times for 30 sec. with a 30 sec. rest period between sonications. The resulting solution is stored over ice. PKC is prepared by addition of cooled assay buffer (10 mL) to PKC (25 μL) purified from rat brain by the method of Mochly-Rosen and Koshland (1986) and then stored on ice. Stock solutions of compounds are diluted with absolute ethanol in glass in serial fashion. Each plastic assay incubation tube is made to contain prepared phosphatidyl serine vesicles (60 μL), prepared PKC solution (200 μL) and analogue (0–20 μL) plus EtOH (20–0 μL) for a total volume of 20 μL). […] Non-specific binding is measured in 1–3 tubes by the substitution of phorbol myristate acetate (PMA) (1 mM, 5 μL) and EtOH (15 μL) for the analogue/EtOH combination. […] The filters are immediately counted in a scintillation counter (Beckman LS 6000SC). […] The data is then plotted using a least squares fit algorithm with the Macintosh version of Kaleidagraph© (Abelbeck Software) and an IC50 (defined as the concentration of analogue required to displace half of the specific PDBU binding to PKC) is calculated. […]
All aspects of the PKCδ-C1B assay are identical to the PKC isozyme mix assay from Example 5 except the following features: In the PKCδ-C1B assay system, assay buffer is made without CaCl2. […] An aliquot (290 μL) is further diluted to 20 mL with assay buffer and is ready for use. […]

[2] = test system: P388 cell line; experiment: P388 murine lymphocytic leukemia cell assay; settings: for activity in P388 assay compared with other analogues: 702.1 vs corresponding C26 methyl-containing analogue, 48, 49 among C20 ester analogues; for EC50: read-out: P388 Assay ED50, 5 days incubation, MTT
Experimental: Cells from a P388 cell line (CellGate, Inc., Sunnyvale, Calif.) are grown in RPMI 1640 cell medium containing fetal calf serum (10%), L-glutamine, penicillin, streptomycin and are split twice weekly. All compounds are first diluted with DMSO. Later serial dilutions are done with a phosphate buffer solution (HYQ DPBS modified phosphate buffered saline). All dilutions are done in glass vials and the final DMSO concentration is always below 0.5% by volume. Final two-fold dilutions are done in a 96 well plate using cell media so that each well contains 50 μL. All compounds are assayed in quadruplicate over 12 concentrations. Cell concentration is measured using a hemacytometer and the final cell concentration is adjusted to 1×10^4 cells/mL with cell medium. The resulting solution of cells (50 μL) is then added to each well and the plates are incubated for 5 days in a 37° C., 5% CO2, humidified incubator (Sanyo CO2 incubator). MTT solution (3-[4,5-dimethylthiazol-2-yl]-2,5-diphenyltetrazolium bromide, 10 μL) is then added to each well and the plates are re-incubated under identical conditions for 2 h. To each well is then added acidified isopropanol (150 μL of i-PrOH solution containing 0.05 N HCl) and mixed thoroughly. The plates are then scanned at 595 nm and the absorbances are read (Wallac Victor 1420 Multilabel Counter). The resulting data is then analyzed to determine an ED50 value using the Prism software package (GraphPad).

For `COC(=O)/C=C1\C[C@H]2C[C@H]([C@@H](C)O)OC(=O)C[C@H](O)C[C@@H]3CCC[C@H](C[C@@H]4CCO[C@H](/C=C/C(C)(C)[C@](O)(O2)[C@H]1OC(=O)c1ccccc1)O4)O3`, the “activity in PKCδ-C1B assay compared with other analogues” value [1] was “higher activity”, the Ki [1] was 1.7 nM and the “activity in P388 assay compared with other analogues” value [2] was “higher activity”. For the same molecule, the EC50 [2] was 42 nM.
With `CCCCCCCCCCCCCC(=O)O[C@H]1/C(=C/C(=O)OC)C[C@H]2C[C@H]([C@@H](C)O)OC(=O)C[C@H](O)C[C@@H]3CCC[C@H](C[C@@H]4CCO[C@H](/C=C/C(C)(C)[C@]1(O)O2)O4)O3` the “activity in PKCδ-C1B assay compared with other analogues” value [1] was “higher activity”, the Ki [1] was 1.3 nM and the “activity in P388 assay compared with other analogues” value [2] was “higher activity”. For the same molecule, the EC50 [2] was 3.6 nM.
